Source: patent publication US20050192262A1, “Treatment of tumours” (priority 2001, published 2005)

Key:
Assay in all cases: Facscan viability (chlorofluoresceindiacetate / propidiumiodide)
Assay type in all cases: cell-based, human
Conditions in all cases: 200 nM 17α-AED + rat liver cytosol + PAPS, Herceptin 1:150, 72 hours
DU-145 = system: DU-145
Experimental: (§1) Effects of HER-2 and 17α-AED-3β-sulfate in breast and prostate cancer cell lines. Cell cultures of prostate cancer cell lines PC-3 and DU-145 as well as mammary cancer cell lines MCF-7 and SKBR-3 were grown in flasks as previously described in the presence or absence of a 200 nM 17α-AED. Cultures containing 17α-AED were further subdivided and these cultures were grown in the presence or absence of Herceptin®, her-2 antibodies, using a stem solution of 1 mg/ml which was further diluted, making the final concentration 1:150 In the cell suspension.
(§2) Representations of each cell line containing no steroid were also treated with herceptin as above. For each cell line and variation of treatment 3 different culture flasks were used.
(§3) Further, a mixture of 100 μL rat liver cytosol and 20 μL of 3′-phosphoadenosine-5′-phosphosulphate (PAPS), corresponding to approximately 0.16 mg of PAPS was shared between and added to cultures containing 17α-AED.
(§4) Finally, for each cell line three samples were kept as untreated controls.
(§5) To estimate the number of viable cells a solution of chlorofluoresceindiacetate was added to the cultures on the last day of culture. This chemical penetrates freely into cells, but is metabolized in the living cell into a form with green fluorescence unable to leave the cell. As counterstaining, to detect dead cells, propidiumiodide, giving a red fluorescence, was added 15 minutes before analyzing the samples in a Facscan. Time for 10000 cells to pass the detector in the Facscan was estimated in order to detect a possible growth inhibitory effect, not resulting in an increased number of dead cells.

MCF-7 = system: MCF-7
Experimental: as §1, §2, §3, §4, §5

PC-3 = system: PC-3
Experimental: as §1, §2, §3, §4, §5

SKBR-3 = system: SKBR-3
Experimental: as §1, §2, §3, §4, §5

“Her-ab: Herceptin®, her-2 antibodies [reference compound]” gave a dead (DU-145) of 17%, a dead (MCF-7) of 12% and a dead (PC-3) of 17%. It also gave a dead (SKBR-3) of 19%.
